Patent US9596854B2, “Fungicidal penflufen mixtures” (priority 2010, dated 2017)

Tested on: Poria placenta
Test: Synergism test: MIC of radial hyphae growth on malt extract/peptone agar, SI by Kull
Assay type: cell-based
Conditions: Example 2, penflufen/DCOIT; nutrient agar, 26° C

Substance: 4,5-dichloro-N-octylisothiazolin-3-one
- MIC against Poria placenta: 20.0 ppm
